Laboratory results taken from PubChem BioAssay AID602244 (Sanford-Burnham Center for Chemical Genomics, 2012).
This is a selection; strong and weak results do not stand in their true shares. Some salts and complexes are drawn in separate pieces, as the source files them; their charges need not balance. The source made the active and inactive calls. Rule as the data show it: active = inhibition above about 34% (passing the limit was not always enough); inactive = the rest.

Sequences of proteins named here, by UniProt entry; tags and fusion partners are left off.
UniProt O00574, whole entry: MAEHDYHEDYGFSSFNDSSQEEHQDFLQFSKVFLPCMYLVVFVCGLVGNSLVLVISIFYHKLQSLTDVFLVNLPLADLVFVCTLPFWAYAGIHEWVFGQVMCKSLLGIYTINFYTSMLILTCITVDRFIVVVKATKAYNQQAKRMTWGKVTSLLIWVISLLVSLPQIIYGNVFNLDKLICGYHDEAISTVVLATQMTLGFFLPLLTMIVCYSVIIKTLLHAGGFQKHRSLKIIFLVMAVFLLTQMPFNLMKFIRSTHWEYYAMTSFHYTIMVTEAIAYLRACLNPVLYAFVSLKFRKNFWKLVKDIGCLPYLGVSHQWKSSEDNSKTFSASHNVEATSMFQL

biological target: C-X-C chemokine receptor type 6 (Homo sapiens) (UniProt O00574); assay: CXCR6 receptor inhibitors, primary screen, cell-based, beta-arrestin, luminescence, CHO-K1 PathHunter, 1536-well (AID 602244); conditions: at 20 µM, stronger effect = higher value;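 also: antagonist mode with CXCL16 agonist at 10 nM final; 0% = 10 nM CXCL16 with DMSO and 100% = unstimulated wells without agonist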

Row | SMILES | inhibition
1 | O=C(O)c1cccc(Nc2c([N+](=O)[O-])cc([N+](=O)[O-])cc2[N+](=O)[O-])c1 | active: 40%
2 | CC1=NCCc2c1[nH]c1ccccc21.O=[N+]([O-])c1cc([N+](=O)[O-])c(O)c([N+](=O)[O-])c1 | inactive: 4.5%
3 | COc1ccccc1OP(C)(=O)Nc1cccc(Br)c1 (centres undefined) | inactive: -4.8%
4 | Cc1cc(C)cc(OP(C)(=O)Nc2ccc(C)cc2C)c1 (centres undefined) | inactive: 2.3%
5 | CCOC(=O)c1ccc(NP(C)(=O)Oc2cc(C)cc(C)c2)cc1 (centres undefined) | inactive: 11.3%
6 | CP(=O)(Nc1cccc(Br)c1)Oc1ccccc1 (centres undefined) | inactive: -3.7%
7 | Cc1cc(C)cc(OP(C)(=O)Nc2ccccn2)c1 (centres undefined) | inactive: -3.7%
8 | Cc1ccc(C)c(NP(C)(=O)Oc2ccccc2)c1 (centres undefined) | inactive: 3%
9 | O=[N+]([O-])c1cc([N+](=O)[O-])c(-n2nnc3ccccc32)c([N+](=O)[O-])c1 | inactive: 0.6%
10 | CN(Cc1cccnc1)C(=O)COc1ccc(Cl)c(Cl)c1.O=[N+]([O-])c1cc([N+](=O)[O-])c(O)c([N+](=O)[O-])c1 | inactive: 24.1%
11 | O=[N+]([O-])c1cc([N+](=O)[O-])c(-c2cnn(-c3ccccc3)c2)c([N+](=O)[O-])c1 | inactive: -59.6%
12 | Cc1nc2ccc3ccccc3c2s1.O=[N+]([O-])c1cc([N+](=O)[O-])c(O)c([N+](=O)[O-])c1 | inactive: 14.7%
13 | CCOC(=O)C(CC)C1=NC(C)(C)Cc2ccccc21.O=[N+]([O-])c1cc([N+](=O)[O-])c(O)c([N+](=O)[O-])c1 (centres undefined) | inactive: 15.3%
14 | O=[N+]([O-])c1cc([N+](=O)[O-])c(Nc2nnnn2CCO)c([N+](=O)[O-])c1 | inactive: 29.2%
15 | CC1=C2N=C(C=C3N=C(C(C)=C4[N-][C@@](C)([C@@H]5N=C1[C@](C)(CCC(=O)NC[C@@H](C)OP(=O)([O-])O[C@H]1[C@@H](O)[C@@H](n6cnc7cc(C)c(C)cc76)O[C@@H]1CO)[C@H]5CC(N)=O)[C@@](C)(CC(N)=O)[C@@H]4CCC(N)=O)[C@@](C)(CC(N)=O)[C@@H]3CCC(N)=O)C(C)(C)[C@@H]2CCC(N)=O.[C-]#N.[Co+3] | inactive: 6.8%
16 | COc1ccccc1OP(C)(=O)Nc1c(C)cccc1C (centres undefined) | inactive: 9.7%
17 | CN1CCCCC1COC(=O)C1(O)c2ccccc2CCc2ccccc21 (centres undefined) | inactive: -4.8%
18 | CP(=O)(Nc1ccc(SC(F)(F)F)cc1)Oc1ccccc1 (centres undefined) | inactive: -3.4%
19 | CCCOc1ccc(NP(C)(=O)Oc2ccc(Cl)cc2)cc1 (centres undefined) | inactive: -7.9%
20 | COc1ccc(-c2ccccn2)cc1.O=[N+]([O-])c1cc([N+](=O)[O-])c(O)c([N+](=O)[O-])c1 | inactive: 12.1%
21 | CP(=S)(Nn1cnnc1)Oc1ccccc1 (centres undefined) | inactive: 6.6%
22 | COc1ccccc1OP(C)(=O)Nc1ccccc1 (centres undefined) | inactive: 0.6%
23 | CP(=O)(Nc1ccccc1Br)Oc1ccccc1 (centres undefined) | inactive: -7.1%
24 | CP(=O)(Oc1ccccc1)OC(c1ccccc1)C(F)(F)F (centres undefined) | inactive: -5.8%
25 | Cc1cccc(C)c1OP(C)(=O)Nc1ccc(SC(F)(F)F)cc1 (centres undefined) | inactive: -1.9%

Row | SMILES | inhibition
26 | Cc1ccc(Nc2c([N+](=O)[O-])cc([N+](=O)[O-])cc2[N+](=O)[O-])cc1 | active: 41.7%
27 | CP(=O)(Nc1ccc(SC(F)(F)F)cc1)Oc1ccc(Cl)cc1 (centres undefined) | inactive: -16.5%
28 | Cc1cc(C)cc(OP(C)(=O)Nc2ccc(SC(F)(F)F)cc2)c1 (centres undefined) | inactive: 10.1%
29 | CCc1ccc(OP(C)(=O)N2CCN(c3ccc([N+](=O)[O-])cc3)CC2)cc1 (centres undefined) | inactive: -5.1%
30 | CP(=O)(NC(=O)Nc1ccccc1)Oc1ccccc1 (centres undefined) | inactive: 5%
31 | CCOP(C)(=S)SCC(=O)NC(C)C(=O)O (centres undefined) | inactive: 1.2%
32 | CCOC(=O)c1ccc(NP(C)(=O)Oc2ccc(OC)cc2)cc1 (centres undefined) | inactive: -3.7%
33 | O=[N+]([O-])c1cc([N+](=O)[O-])c(O)c([N+](=O)[O-])c1.c1ccc(Oc2ccncc2)cc1 | inactive: 13.2%
34 | CP(=O)(Nc1ccccn1)Oc1ccc(Cl)cc1 (centres undefined) | inactive: -7.7%
35 | CCN(CC)CCCOC(=O)C(O)(c1ccccc1)c1ccccc1 | inactive: 6.6%
36 | COc1ccccc1-c1ccccn1.O=[N+]([O-])c1cc([N+](=O)[O-])c(O)c([N+](=O)[O-])c1 | inactive: 14.3%
37 | O=[N+]([O-])c1cc([N+](=O)[O-])c(Nc2cccnc2)c([N+](=O)[O-])c1 | inactive: 24.9%
38 | Cc1cccc(C)c1OP(C)(N)=O (centres undefined) | inactive: 0%
39 | CC(C)(C)c1ccc(OP(C)(=O)Nc2ccc(SC(F)(F)F)cc2)cc1 (centres undefined) | inactive: 2.2%
40 | O=[N+]([O-])c1ccc2c(c1)C=Nc1ccccc1O2 | inactive: -9.1%
41 | CCOC(=O)c1ccc(NP(C)(=O)Oc2ccccc2)cc1 (centres undefined) | inactive: -7.6%
42 | Cc1ccc(NP(C)(=O)Oc2ccccc2)c(C)c1 (centres undefined) | inactive: -2.8%
43 | COc1ccccc1OP(C)(=O)Nc1ccc(C)cc1 (centres undefined) | inactive: -3.3%
44 | COc1ccc(OP(C)(=O)Nc2cccc(F)c2)cc1 (centres undefined) | inactive: -1.7%
45 | COc1ccccc1OP(C)(=O)Nc1cc(Cl)ccc1C (centres undefined) | inactive: -0.4%
46 | Cc1cc(C)cc(OP(C)(N)=O)c1 (centres undefined) | inactive: -4.2%
47 | Cc1cc(C)cc(OP(C)(=O)Nc2cccc(C(F)(F)F)c2)c1 (centres undefined) | inactive: -1.3%
48 | O=C1C(O)=C([N+](=O)[O-])C(=O)C(O)=C1[N+](=O)[O-] | inactive: 6.7%
49 | COc1ccc(OP(C)(=O)Nc2ccccc2Br)cc1 (centres undefined) | inactive: 1.4%
50 | COc1ccccc1OP(C)(=O)Nc1ccc(C)c(C)c1 (centres undefined) | inactive: 0.9%

Row | SMILES | inhibition
51 | CP(=O)(OCCOc1ccccc1)OCCOc1ccccc1 | inactive: -5.7%
52 | CP(=O)(Nc1ccc(Cl)cc1Cl)Oc1ccccc1 (centres undefined) | inactive: -0.1%
53 | CCCCCCCCCCCCCCCC1C[N+](C)(C)CCOP(C)(=O)O1 (centres undefined) | inactive: 29.1%
54 | COc1ccccc1OP(C)(=O)Nc1ccc(Br)cc1 (centres undefined) | inactive: -5.1%
55 | CN(C)CCOC(=O)C(O)(c1ccccc1)C1CCCC1 (centres undefined) | inactive: 2%
56 | COc1ccc(OP(C)(=O)Nc2ccccn2)cc1 (centres undefined) | inactive: -0.1%
57 | O=[N+]([O-])c1cc([N+](=O)[O-])c(Nc2ccccn2)c([N+](=O)[O-])c1 | inactive: 22.7%
58 | Cc1c(NP(C)(=O)Oc2ccc(C(C)C)cc2)c(=O)n(-c2ccccc2)n1C (centres undefined) | inactive: 9.1%
59 | CCc1ccc(OP(C)(=O)O)cc1 | inactive: 0%
60 | COc1ccccc1OP(C)(=O)Nc1ccc(C)cc1C (centres undefined) | inactive: -10.2%
61 | CP(=O)(Nc1ccccn1)Oc1ccccc1 (centres undefined) | inactive: -1.5%
62 | COc1ccc(OP(C)(=O)Nc2ccc(Br)cc2)cc1 (centres undefined) | inactive: 0.5%
63 | CCN(CC)CC(O)COC(=O)C(O)(c1ccccc1)C1CCCCC1 (centres undefined) | inactive: -25.7%
64 | CCc1ccc(OP(C)(=O)Nc2cccnc2)cc1 (centres undefined) | inactive: 2.5%
65 | CP(=O)(Oc1ccccc1)N1CCOC1=O (centres undefined) | inactive: -8.3%
66 | O=C(OCCCN1CCCC1)C(O)(c1ccccc1)C1CCCCC1 (centres undefined) | inactive: 12.3%
67 | COc1ccccc1OP(C)(=O)Nc1c(C)n(C)n(-c2ccccc2)c1=O (centres undefined) | inactive: 1.2%
68 | CP(=O)(Nc1ccc(Cl)cc1)Oc1ccc(F)cc1 (centres undefined) | inactive: 0.5%
69 | CC(C)(C)c1ccc(OP(C)(=O)O)cc1 | inactive: -4.6%
70 | COc1ccccc1OP(C)(=O)Nc1ccccc1Br (centres undefined) | inactive: 9.9%
71 | CN(C)C(=O)c1c([N+](=O)[O-])cc([N+](=O)[O-])cc1[N+](=O)[O-] | inactive: -17.9%
72 | CP(=O)(OC12CC3CC(CC(C3)C1)C2)OC12CC3CC(CC(C3)C1)C2 | inactive: -2.1%
73 | CCOC(=O)c1ccc(NP(C)(=O)Oc2ccc(Cl)cc2)cc1 (centres undefined) | inactive: -7.8%
74 | COc1ccc(OP(C)(=O)Nc2cccc(Br)c2)cc1 (centres undefined) | inactive: -5.4%
75 | COc1ccc(NP(C)(=O)Oc2ccccc2OC)cc1 (centres undefined) | inactive: -7%

Row | SMILES | inhibition
76 | CN(C)CCOC(=O)C(O)(c1ccccc1)C1CCCCC1 (centres undefined) | inactive: 1.6%
77 | O=[N+]([O-])c1cc([N+](=O)[O-])c(NCC2CCS(=O)(=O)C2)c([N+](=O)[O-])c1 (centres undefined) | inactive: -2.7%
78 | Cc1cc(-c2cccc3ccccc23)c(C)cn1.O=[N+]([O-])c1cc([N+](=O)[O-])c(O)c([N+](=O)[O-])c1 | inactive: 12.5%
79 | O=[N+]([O-])c1ccc(OP2(=O)COCCO2)cc1 (centres undefined) | inactive: 0.3%
80 | Cc1c(C(c2ccc3c(c2)OCO3)c2c(C)n(C)n(-c3ccccc3)c2=O)c(=O)n(-c2ccccc2)n1C.O=[N+]([O-])c1cc([N+](=O)[O-])c(O)c([N+](=O)[O-])c1 | inactive: -7.8%
81 | CP(=O)(Nc1ccc(SC(F)(F)F)cc1)Oc1ccc(F)cc1 (centres undefined) | inactive: -8.6%
82 | CCOP(C)(=S)SCC(=O)NC(C)(CC)C(=O)O (centres undefined) | inactive: -5%
83 | CP(=O)(Nc1ccc2c(c1)OCCO2)Oc1ccccc1 (centres undefined) | inactive: 7.1%
84 | O=[N+]([O-])c1cc([N+](=O)[O-])c(C(F)(F)F)c([N+](=O)[O-])c1O | inactive: 16.6%
85 | Cc1ccccc1NP(C)(=O)Nc1ccccc1C | inactive: -3.7%
86 | O=[N+]([O-])c1cc([N+](=O)[O-])c(Nc2ccc(Cl)cc2)c([N+](=O)[O-])c1 | active: 44.6%
87 | CC(C)c1ccc(OP(C)(=O)Nc2ccc(SC(F)(F)F)cc2)cc1 (centres undefined) | inactive: -7.9%
88 | CP(=O)(Nc1ccccc1F)Oc1ccccc1 (centres undefined) | inactive: 7.1%
89 | O=C(OCCN1CCN(CCOCc2ccccc2)CC1)C(O)(c1ccccc1)c1ccccc1 | inactive: -4.6%
90 | O=C(OC1CN2CCC1CC2)c1ccc([N+](=O)[O-])cc1 (centres undefined) | inactive: -3.3%
91 | COc1ccc2c(c1O)-c1c(O)c(OC)cc3c1[C@H](C2)[N+](C)(C)CC3.O=[N+]([O-])c1cc([N+](=O)[O-])c([O-])c([N+](=O)[O-])c1[O-] | inactive: 1.5%
92 | CCN(CC)CCCNc1ccccc1[N+](=O)[O-].O=[N+]([O-])c1cc([N+](=O)[O-])c(O)c([N+](=O)[O-])c1 | inactive: 15.6%
93 | COc1ccc(OP(C)(=O)Nc2ccc(SC(F)(F)F)cc2)cc1 (centres undefined) | inactive: 5%
94 | CCOC(=O)c1ccc(NP(C)(=O)Oc2ccc(F)cc2)cc1 (centres undefined) | inactive: -2.5%
95 | CCN(CC)CCCOC(=O)C(O)(c1ccccc1)C1CCCCC1 (centres undefined) | inactive: 4.3%
96 | Cc1c([N+](=O)[O-])cc([N+](=O)[O-])c(Br)c1[N+](=O)[O-] | inactive: 11.4%
97 | O=[N+]([O-])c1cc([N+](=O)[O-])c(OC2CCCCC2O)c([N+](=O)[O-])c1 (centres undefined) | inactive: 21.5%
98 | CCCCCOc1ccc(NP(C)(=O)Oc2ccc(Cl)cc2Cl)cc1 (centres undefined) | inactive: 4.4%
99 | CP(=O)(Nc1ccccc1)Oc1ccc(F)cc1 (centres undefined) | inactive: -6.9%
